Assay results taken from patent US20250161243A1, “MEF2 TRANSCRIPTIONAL ACTIVATORS TO TREAT NEUROLOGIC CONDITIONS” (The Scripps Research Institute, priority 2022, published 2025).

Tested on: MEF2 transcriptional activity
Assay: MEF2 transcriptional activity screen (Luciferase-MEF2 reporter in human neural progenitor cells)
Conditions: read-out: qAC50 [M]

CN(C)CCCOc1ccc(-c2ccc3ncc4c(c3c2)n(C2CCOCC2)c(=O)n4C)cn1 [AZD-0156]
EC50: 1.18e-05 M
